The text below walks through data of ChEMBL document CHEMBL1144950, “Structure--activity relationships of azasugar-based MMP/ADAM inhibitors” (Bioorg Med Chem Lett, 2003).

Sequences of proteins named here, by UniProt entry; tags and fusion partners are left off. A change or cut given only in a name is not applied to a line headed by its entry.
UniProt P78536: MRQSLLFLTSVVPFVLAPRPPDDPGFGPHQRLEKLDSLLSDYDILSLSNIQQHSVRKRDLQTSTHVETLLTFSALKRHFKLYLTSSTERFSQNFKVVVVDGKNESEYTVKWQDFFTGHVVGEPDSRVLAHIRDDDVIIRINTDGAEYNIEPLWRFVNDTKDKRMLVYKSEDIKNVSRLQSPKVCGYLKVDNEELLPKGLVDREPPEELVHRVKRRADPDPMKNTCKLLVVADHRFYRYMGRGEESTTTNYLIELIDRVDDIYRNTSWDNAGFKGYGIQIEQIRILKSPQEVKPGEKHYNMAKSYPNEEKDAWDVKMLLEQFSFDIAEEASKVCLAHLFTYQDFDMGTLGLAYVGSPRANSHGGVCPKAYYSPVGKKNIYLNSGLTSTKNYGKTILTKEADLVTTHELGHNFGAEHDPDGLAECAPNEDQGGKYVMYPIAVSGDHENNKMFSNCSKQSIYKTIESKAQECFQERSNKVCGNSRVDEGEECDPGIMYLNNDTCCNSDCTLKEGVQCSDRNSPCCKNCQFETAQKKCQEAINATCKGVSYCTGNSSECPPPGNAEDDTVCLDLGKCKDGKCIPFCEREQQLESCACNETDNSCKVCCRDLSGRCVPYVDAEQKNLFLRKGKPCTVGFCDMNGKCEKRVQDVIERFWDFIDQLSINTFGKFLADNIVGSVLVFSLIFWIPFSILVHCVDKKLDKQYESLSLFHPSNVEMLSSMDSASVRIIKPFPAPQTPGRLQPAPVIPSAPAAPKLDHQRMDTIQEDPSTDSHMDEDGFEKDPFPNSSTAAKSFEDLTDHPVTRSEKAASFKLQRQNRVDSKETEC

In this test the target is Disintegrin and metalloproteinase domain-containing protein 17 (Homo sapiens, UniProt P78536). The test is described as follows: Inhibition of recombinant human TNF-alpha converting enzyme (TACE).

Structures are written as SMILES.

In the case of `CNC(=O)[C@@H](NC(=O)[C@H](CC(C)C)[C@H](O)C(=O)NO)C(C)(C)C`, the Ki (in general, the equilibrium dissociation constant of an inhibitor or competing ligand from its target) is 0.4 nM.
